The source of these data is US20040014721A1, “Method for using tethered bis(polyhydroxyphenyls) and O-alkyl derivatives thereof in treating inflammatory conditions of the central nervous system” (Oklahoma Medical Research Foundation, priority 2002, published 2004).

Structures are written as SMILES.

This data set concerns EOC-20 cells. As to conditions: Table III; MTT viability; by extrapolation through sublethal concentrations.

With `CN(C)[C@@H]1C(O)=C(C(N)=O)C(=O)[C@@]2(O)C(O)=C3C(=O)c4c(O)cccc4[C@@](C)(O)[C@H]3[C@H](O)[C@@H]12` [Oxyletracycline], the LD50 entry is given as “nontoxic”.
